From ChEMBL document CHEMBL5726649, “Kinase inhibitors and methods of use” (2017)

Protein sequences, listed by entry. Tags and fused reporters are not part of them. Lines headed by an entry give the natural chain unless they say otherwise; changes in a name come on top.
UniProt P42336, whole entry: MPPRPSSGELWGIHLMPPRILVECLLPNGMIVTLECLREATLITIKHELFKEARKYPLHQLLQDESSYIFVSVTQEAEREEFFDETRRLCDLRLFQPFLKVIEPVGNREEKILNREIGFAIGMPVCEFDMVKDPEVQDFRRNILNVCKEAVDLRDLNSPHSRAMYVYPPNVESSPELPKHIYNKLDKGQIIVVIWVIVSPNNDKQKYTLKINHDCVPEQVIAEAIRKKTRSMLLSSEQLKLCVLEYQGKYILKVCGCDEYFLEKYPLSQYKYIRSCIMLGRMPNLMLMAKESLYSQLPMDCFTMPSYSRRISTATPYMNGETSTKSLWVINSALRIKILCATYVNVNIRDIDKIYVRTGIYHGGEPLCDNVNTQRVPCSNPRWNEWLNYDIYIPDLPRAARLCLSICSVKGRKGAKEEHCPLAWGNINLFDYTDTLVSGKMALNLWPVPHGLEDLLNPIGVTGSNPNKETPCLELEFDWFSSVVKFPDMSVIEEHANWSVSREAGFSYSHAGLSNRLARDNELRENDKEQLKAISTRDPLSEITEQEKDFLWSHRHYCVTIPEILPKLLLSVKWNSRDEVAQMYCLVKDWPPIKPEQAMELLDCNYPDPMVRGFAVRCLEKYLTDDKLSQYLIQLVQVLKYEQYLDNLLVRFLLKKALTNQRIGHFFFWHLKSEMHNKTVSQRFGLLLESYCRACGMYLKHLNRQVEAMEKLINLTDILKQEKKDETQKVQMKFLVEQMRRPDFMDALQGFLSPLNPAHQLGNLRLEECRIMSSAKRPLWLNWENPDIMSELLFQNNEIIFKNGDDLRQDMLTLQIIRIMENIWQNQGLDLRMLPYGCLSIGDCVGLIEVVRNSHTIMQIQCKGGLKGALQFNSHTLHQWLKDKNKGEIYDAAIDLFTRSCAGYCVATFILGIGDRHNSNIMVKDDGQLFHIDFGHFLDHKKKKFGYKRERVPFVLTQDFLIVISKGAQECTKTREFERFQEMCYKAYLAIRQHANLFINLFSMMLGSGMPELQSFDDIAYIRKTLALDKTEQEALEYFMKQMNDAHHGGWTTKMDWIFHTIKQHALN
UniProt P48736: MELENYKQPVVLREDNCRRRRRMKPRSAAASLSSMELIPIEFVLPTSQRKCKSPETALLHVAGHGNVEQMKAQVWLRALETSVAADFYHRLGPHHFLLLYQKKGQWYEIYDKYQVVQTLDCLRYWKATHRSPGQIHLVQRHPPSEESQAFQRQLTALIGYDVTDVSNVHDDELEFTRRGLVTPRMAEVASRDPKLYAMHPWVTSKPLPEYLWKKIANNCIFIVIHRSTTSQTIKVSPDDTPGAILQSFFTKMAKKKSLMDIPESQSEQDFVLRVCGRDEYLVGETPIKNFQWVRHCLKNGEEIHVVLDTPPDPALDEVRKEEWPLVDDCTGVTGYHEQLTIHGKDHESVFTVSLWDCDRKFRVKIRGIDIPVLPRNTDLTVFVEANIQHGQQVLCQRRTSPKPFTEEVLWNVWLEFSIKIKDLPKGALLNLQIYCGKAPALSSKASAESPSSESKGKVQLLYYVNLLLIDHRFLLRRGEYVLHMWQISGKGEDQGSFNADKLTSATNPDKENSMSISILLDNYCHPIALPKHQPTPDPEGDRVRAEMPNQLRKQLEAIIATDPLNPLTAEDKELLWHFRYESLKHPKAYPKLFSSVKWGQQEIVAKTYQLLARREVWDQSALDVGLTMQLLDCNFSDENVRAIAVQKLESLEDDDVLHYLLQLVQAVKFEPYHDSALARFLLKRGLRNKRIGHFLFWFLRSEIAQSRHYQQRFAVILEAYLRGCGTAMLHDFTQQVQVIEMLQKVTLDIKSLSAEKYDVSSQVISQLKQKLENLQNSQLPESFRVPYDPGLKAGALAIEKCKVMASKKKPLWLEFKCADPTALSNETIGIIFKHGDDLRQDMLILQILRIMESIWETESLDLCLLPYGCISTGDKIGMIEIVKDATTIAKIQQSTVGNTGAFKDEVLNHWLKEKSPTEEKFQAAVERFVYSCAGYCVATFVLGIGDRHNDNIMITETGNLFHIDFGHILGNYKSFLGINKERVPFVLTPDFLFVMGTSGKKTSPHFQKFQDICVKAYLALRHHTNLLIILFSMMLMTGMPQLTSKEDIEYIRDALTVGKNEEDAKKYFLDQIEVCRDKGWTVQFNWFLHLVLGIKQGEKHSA

Experiments:
[1] = target: Phosphatidylinositol 4,5-bisphosphate 3-kinase catalytic subunit alpha isoform (Homo sapiens, UniProt P42336)
[2] = target: Phosphatidylinositol 4,5-bisphosphate 3-kinase catalytic subunit gamma isoform (Homo sapiens, UniProt P48736)

Work on `CC(C)n1nc(-c2cc3c(Cl)c(O)ccc3[nH]2)c2c(N)ncnc21` yielded an IC50 [1] of over 500 nM.
For `COc1cccc2cc(-c3nn(C(C)C)c4ncnc(N)c34)[nH]c12`, the IC50 [1] was over 500 nM and the IC50 [2] was over 500 nM.
